Measured values taken from patent US20210047394A1 (Hoffmann-La Roche, published 2021).

Protein sequences, listed by entry. Tags and fused reporters are not part of them. Chains listed by the source or under a name are the forms on record and can include a tag or linker.
rhVEGF (R&D Systems Cat. No. 293-VE), UniProt P15692, other isoform, or with tags, fused parts or gaps limits assumed: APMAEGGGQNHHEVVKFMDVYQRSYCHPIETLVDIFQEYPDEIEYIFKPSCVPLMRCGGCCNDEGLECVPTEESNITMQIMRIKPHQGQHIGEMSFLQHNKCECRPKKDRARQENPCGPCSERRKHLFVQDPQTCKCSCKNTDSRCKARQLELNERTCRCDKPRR
huVEGF121 (R&D Systems, UK, Cat. No. 298-VS), UniProt P15692, other isoform, or with tags, fused parts or gaps limits assumed: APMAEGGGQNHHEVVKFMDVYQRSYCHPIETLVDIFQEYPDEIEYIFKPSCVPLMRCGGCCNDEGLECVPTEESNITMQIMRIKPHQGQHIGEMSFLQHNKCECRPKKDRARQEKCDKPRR

Tests used:
[1] = biological target: T1, rhVEGF (R&D Systems Cat. No. 293-VE) (human, UniProt P15692 181-395); test: SPR (Biacore T100), antibody captured via anti-human IgG, rhVEGF analyte, 37 C
T1 construct: Analyte in the Biacore assays; also called VEGF-A

[2] = biological target: T1, rhVEGF (R&D Systems Cat. No. 293-VE); test: SPR (Biacore T100), antibody captured via anti-hIgG-Fc, VEGF analyte, 25 C
[3] = biological target: T2, huVEGF121 (R&D Systems, UK, Cat. No. 298-VS) (human, UniProt P15692-9 27-147); test: inhibition of huVEGF121 binding to coated hVEGF-R (ELISA)
T2 construct: domain: VEGF121; also called hVEGF

B1: <VEGF> HuMab G6-31 (antibody, V domains shown)
VH: EVQLVESGGGLVQPGGSLRLSCAASGFTISDYWIHWVRQAPGKGLEWVAGITPAGGYTYYADSVKGRFTISADTSKNTAYLQMNSLRAEDTAVYYCARFVFFLPYAMDYWGQGTLVTVSS
VL: DIQMTQSPSSLSASVGDRVTITCRASQDVSTAVAWYQQKPGKAPKLLIYSASFLYSGVPSRFSGSGSGTDFTLTISSLQPEDFATYYCQQGYGNPFTFGQGTKVEIK
notes: 'standard' human IgG1 antibody; also called <VEGF> G6-31; G6-31 (1000)
Question: What does the source list for B1?
Answer: Kd [1]: 1.93 pM; koff [1]: 9.33e-06 s⁻¹; kon [1]: 4.83e+06 M⁻¹ s⁻¹; t1/2 [1]: 20.6 h; Kd [2]: < 100 pM; IC50 [3]: 1.43 µg/mL
